# Results reported in patent US20250230247A1 (DREN BIO, published 2025).
# B1: 2M24A.29 hFab H7 (Fab, V domains shown)
# VH: not shown
# VL: DIQMTQSPSSVSASVGDRVTITCRASQGISSWLAWYQQKPGKAPKLLIFGASSLQSGVPSRFSGSGSGTDFTLTVSSLQPEDFATYYCQQAYSFPFTFGPGTKVDIE
# notes: Fab; also called 2M24.H7
# Experiments:
# [1] = molecular target: T1, human Dectin-1 (biosensor tests of Tables 3, 4A and 9; construct not stated) (human, UniProt Q9BXN2 66-247, limits assumed); test: Fab K dis, average of 3
# T1 construct: also called hDectin-1
# T1 sequence (looked up): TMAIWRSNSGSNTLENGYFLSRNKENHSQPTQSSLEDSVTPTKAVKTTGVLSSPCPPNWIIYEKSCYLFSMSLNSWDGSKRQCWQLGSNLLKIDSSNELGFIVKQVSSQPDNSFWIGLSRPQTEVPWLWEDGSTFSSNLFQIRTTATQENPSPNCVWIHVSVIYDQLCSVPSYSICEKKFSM
# [2] = molecular target: T1, human Dectin-1 (biosensor tests of …); test: Fab K dis, run 1
# [3] = molecular target: T1, human Dectin-1 (biosensor tests of …); test: Fab K dis, run 2
# [4] = molecular target: T1, human Dectin-1 (biosensor tests of …); test: Fab K dis, run 3
binder,measurement,setting,value
B1,koff,[1],0.00342 s⁻¹
same,koff,[2],0.00556 s⁻¹
same,koff,[3],0.00204 s⁻¹
same,koff,[4],0.00267 s⁻¹
